Assay results taken from PubChem BioAssay AID463213 (Sanford-Burnham Center for Chemical Genomics, 2010).
Only a part is listed here, and it is no random draw. Active and inactive are the calls of the source.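 Rule for the calls: active = inhibition of yeast growth at or above a set limit in either of two repeat tests at 20 µM; inactive = the rest.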

Test: growth inhibitors of tim10-1 mutant yeast, confirmation, single concentration, luminescence, S. cerevisiae (AID 463213);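 note: tim10-1 mutant grown at permissive 25 °C to find synthetic lethal compounds; 0% = DMSO yeast wells and 100% = medium wells without yeast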
Details: S. cerevisiae tim10-1 ts strain growth, BacTiter-Glo, 24 h; at 20 µM; hits give high values
In the case of `O=[N+]([O-])c1cc([N+](=O)[O-])c(Nc2ccccn2)c([N+](=O)[O-])c1`, the inhibition is reported as active: 58.9%.
With `CP(=O)(OC12CC3CC(CC(C3)C1)C2)OC12CC3CC(CC(C3)C1)C2` the inhibition was active: 35.4%.
In the case of `CCCCCOc1ccc(NP(C)(=O)Oc2ccc(Cl)cc2Cl)cc1` (stereo not given), the inhibition is reported as inactive: 21.5%.
With `O=[N+]([O-])c1cc([N+](=O)[O-])c(Nc2cccnc2)c([N+](=O)[O-])c1` the inhibition was active: 50.2%.
With `CC(C)(C)c1ccc(OP(C)(=O)Nc2ccc(SC(F)(F)F)cc2)cc1` (stereo not given) the inhibition was inactive: 19.8%.
